Molecular target: MOP2 (Mus musculus, UniProt P35377)
Assay: Forskolin stimulated cAMP accumulation in COS-7 cells expressing MOP2
Format: cell-based
Details: agonists 100 nM; naloxonazine 1 μM

Protein sequences, listed by entry. Tags and fused reporters are not part of them.
UniProt P35377, whole entry: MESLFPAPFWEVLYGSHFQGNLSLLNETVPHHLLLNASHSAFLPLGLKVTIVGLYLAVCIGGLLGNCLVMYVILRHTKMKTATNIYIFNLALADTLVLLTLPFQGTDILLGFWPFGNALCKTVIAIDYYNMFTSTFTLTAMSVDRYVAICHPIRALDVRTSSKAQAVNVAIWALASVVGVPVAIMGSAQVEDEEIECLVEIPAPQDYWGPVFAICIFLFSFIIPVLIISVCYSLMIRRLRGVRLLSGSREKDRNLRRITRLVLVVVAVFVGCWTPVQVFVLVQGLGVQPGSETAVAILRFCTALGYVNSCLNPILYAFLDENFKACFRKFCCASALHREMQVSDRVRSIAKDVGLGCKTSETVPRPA

Row | Compound | Block of the effects of etorphine and lofentanil on cAMP, MOP2
1 | C=CCN1CC[C@]23c4c5ccc(O)c4O[C@H]2/C(=N/N=C2\CC[C@@]4(O)[C@H]6Cc7ccc(O)c8c7[C@@]4(CCN6CC=C)[C@H]2O8)CC[C@@]3(O)[C@H]1C5 | completely blocked
2 | β-funaltrexamine | partially blocked
